Source: publication PMC8511083 (European journal of medicinal chemistry, 2021)

Experiments:
A375 xenograft tumors = experiment: A375 subcutaneous melanoma xenograft model in NSG mice; format: in vivo, mouse; conditions: 20 mg/kg and 40 mg/kg IP, 15 days
[1] = test system: OVCAR8 orthotopic ovarian tumors; experiment: Orthotopic OVCAR8 ovarian cancer mouse model; format: in vivo; conditions: 20 mg/kg then 40 mg/kg IP, during the treatment period

## Oc1c(CN2CCCCC2)cc(Cn2ncc(-c3ccc(C(F)(F)F)cc3)n2)c2cccnc12 [Compound 12b, 7-(piperidin-1-ylmethyl)-5-((4-(4-(trifluoromethyl)phenyl)-2H-1,2,3-triazol-2-yl)methyl)quinolin-8-ol]
A375 xenograft tumors; 3 times/week, vs vehicle
  tumor growth: significantly inhibited tumor growth in a dose-dependent manner
A375 xenograft tumors
  body weight: no significant body weight loss
[1]
  body weight: no severe weight loss
